Literature values in patent publication US9803220B2, “Production of alkenes from 3-hydroxy-1-carboxylic acids via 3-sulfonyloxy-1-carboxylic acids” (Scientist of Fortune S.A., priority 2012, dated 2017).

System: Rhodotorula minuta
Conditions: conversion of isovalerate to isobutylene; Fujii T. et al., 1988; cited from earlier work

isovalerate
turnover number (kcat): 1e-05 s⁻¹
